Results taken from patent publication US20230406950A1 (LYVGEN BIOPHARMA, published 2023).

Chains of the proteins cited; added tags and fusions are not shown. Residues count along the entry.
UniProt Q07011, 24-255: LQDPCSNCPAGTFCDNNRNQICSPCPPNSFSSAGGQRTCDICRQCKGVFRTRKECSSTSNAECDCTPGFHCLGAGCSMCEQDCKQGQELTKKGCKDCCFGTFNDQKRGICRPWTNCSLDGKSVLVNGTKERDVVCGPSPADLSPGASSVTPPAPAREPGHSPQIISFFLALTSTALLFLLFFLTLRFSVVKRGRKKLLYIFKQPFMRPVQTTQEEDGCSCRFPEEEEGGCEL

T1: human GITR expressed on cells (human, UniProt Q9Y5U5 26-241)
T1 construct: whole, on cells; also called TNFRSF18; CD357
T1 sequence (looked up): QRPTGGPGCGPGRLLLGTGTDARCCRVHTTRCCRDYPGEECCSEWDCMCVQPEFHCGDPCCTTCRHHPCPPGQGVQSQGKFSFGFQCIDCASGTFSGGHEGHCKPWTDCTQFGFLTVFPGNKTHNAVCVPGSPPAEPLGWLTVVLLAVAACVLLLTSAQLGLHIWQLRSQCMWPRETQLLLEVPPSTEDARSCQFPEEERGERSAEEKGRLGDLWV

B1: Ly760 (bispecific antibody, human IgG1, kappa)
heavy: QVQLQESGPGLVKPSETLSLTCTVSGFSLTSYNVHWIRQPPGKGLEWIGVIWSGVRTDYNSVLKPRVTISVDTSKNQFSLKLSSVTAADTAVYYCARGTYDDNYHDVMDAWGQGTLVTVSSASTKGPSVFPLAPSSKSTSGGTAALGCLVKDYFPEPVTVSWNSGALTSGVHTFPAVLQSSGLYSLSSVVTVPSSSLGTQTYICNVNHKPSNTKVDKKVEPKSCDKTHTCPPCPAPELLGPSVFLFPPKPKDTLMISRTPEVTCVVVDVSHEDPEVKFNWYVDGVEVHNAKTKPREEQYNSTYRVVSVLTVLHQDWLNGKEYKCKVSNKALPAPIEKTISKAKGQPREPQVYTLPPSREEMTKNQVSLTCLVKGFYPSDIAVEWESNGQPENNYKTTPPVLDSDGSFFLYSKLTVDKSRWQQGNVFSCSVMHEALHNHYTQKSLSLSPGK
light: EIVLTQSPATLSLSPGERATLSCRASKSVRTGMHWYQQKPGQAPRLLIYGASNLESGIPARFSGSGSGTDFTLTISSLEPEDFAVYYCQQSWNHFTFGQGTKLEIKRTVAAPSVFIFPPSDEQLKSGTASVVCLLNNFYPREAKVQWKVDNALQSGNSQESVTEQDSKDSTYSLSSTLTLSKADYEKHKVYACEVTHQGLSSPVTKSFNRGECGGGGSGGGGSGGGGSGGGGSDIQMTQSPSSLSASVGDRVTITCRASQDIRSNLNWYQQKPGGAVKLLIYYTSRLHSGVPSRFSGSGSGTDYTLTISSLQPEDFATYFCQQSEKLPRTFGGGTKVEIRGGGGSGGGGSGGGGSGGGGSQVQLVQSGAEVKKPGASVKVSCKASGYTFAGFEMHWVRQAPGQGLEWMGAIDPKTGGTDYNQKFKDRVTMTRDTSISTAYMELSRLRSDDTAVYYCARDLGYFDVWGQGTLVTVSS
B2: Ly761 (bispecific antibody, human IgG1, kappa)
heavy: B1 heavy
light: EIVLTQSPATLSLSPGERATLSCRASKSVRTGMHWYQQKPGQAPRLLIYGASNLESGIPARFSGSGSGTDFTLTISSLEPEDFAVYYCQQSWNHFTFGQGTKLEIKRTVAAPSVFIFPPSDEQLKSGTASVVCLLNNFYPREAKVQWKVDNALQSGNSQESVTEQDSKDSTYSLSSTLTLSKADYEKHKVYACEVTHQGLSSPVTKSFNRGECGGGGSGGGGSGGGGSGGGGSQVQLVQSGAEVKKPGASVKVSCKASGYTFAGFEMHWVRQAPGQGLEWMGAIDPKTGGTDYNQKFKDRVTMTRDTSISTAYMELSRLRSDDTAVYYCARDLGYFDVWGQGTLVTVSSGGGGSGGGGSGGGGSGGGGSDIQMTQSPSSLSASVGDRVTITCRASQDIRSNLNWYQQKPGGAVKLLIYYTSRLHSGVPSRFSGSGSGTDYTLTISSLQPEDFATYFCQQSEKLPRTFGGGTKVEIR

Assays:
[1] = molecular target: T2, human CD137 expressed on cells (human, UniProt Q07011 24-255); test: FACS on CHO cells expressing human CD137 (MFI)
T2 construct: whole, on cells; also called 4-1BB; TNFRSF9
Experimental: (§1) Anti-GITR/CD137 bi-specific antibodies were analyzed by FACS for their binding properties to human GITR and/or human CD137 expressed on CHO cells. Briefly, cultured cells were harvested, counted and cell viability was evaluated using the Trypan Blue exclusion method. Viable cells were then adjusted to 2×10⁶ cells per mL in PBS containing 2% BSA. 100 μL of this cell suspension were further aliquoted per well into a V-bottom 96-well plate. […] After incubation for 2 hours at 4° C., cells were centrifuged (3 min, 1000× g), washed with 250 μL/well BSA-containing FACS Stain Buffer, resuspended and incubated for an additional 1 hour at 4° C. with 100 μL/well fluorochrome-conjugated anti-IgG antibody for detection of the bisepecific antibody. Cells were then washed with 250 μL/well BSA-containing FACS Stain Buffer, resuspended in 100 μL/well FACS Stain Buffer, acquired and analyzed using a FACS machine. Binding of the bispecific antibodies to human GITR or human CD137 expressing CHO cells were evaluated and the mean fluorescence intensity is plotted in histograms or dot plots.

[2] = molecular target: T1, human GITR expressed on cells; test: flow cytometry (FACS), MFI, CHO cells expressing human GITR
Experimental: as §1

Row | EC50 (read off the curve) [1] [µg/mL] | binding result [2] | Binder
1 | ~0.3 | binds | B1
2 | ~0.3 |  | B2
